Source: PMC11639629, “Synthesis and Biological Evaluation of Deoxycyclophellitols as Human Retaining β‐Glucosidase Inhibitors” (Chemistry (Weinheim an Der Bergstrasse, Germany), 2024)

By UniProt entry, the sequences of proteins in these tests, tags left out. Residues count along the entry.
UniProt Q9H227, whole entry: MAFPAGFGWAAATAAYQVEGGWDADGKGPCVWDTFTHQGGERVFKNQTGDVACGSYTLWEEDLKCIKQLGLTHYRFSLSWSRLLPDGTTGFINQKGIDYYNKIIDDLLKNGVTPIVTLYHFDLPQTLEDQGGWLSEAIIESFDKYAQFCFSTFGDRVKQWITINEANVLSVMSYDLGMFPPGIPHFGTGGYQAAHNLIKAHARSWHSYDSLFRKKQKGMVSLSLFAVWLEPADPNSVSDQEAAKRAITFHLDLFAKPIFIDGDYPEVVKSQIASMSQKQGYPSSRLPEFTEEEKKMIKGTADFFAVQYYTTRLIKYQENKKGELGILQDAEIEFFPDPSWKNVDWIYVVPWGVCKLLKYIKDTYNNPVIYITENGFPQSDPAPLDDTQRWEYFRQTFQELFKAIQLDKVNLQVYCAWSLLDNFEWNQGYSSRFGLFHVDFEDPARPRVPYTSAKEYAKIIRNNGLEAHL
UniProt P04062, 40-536 limits assumed: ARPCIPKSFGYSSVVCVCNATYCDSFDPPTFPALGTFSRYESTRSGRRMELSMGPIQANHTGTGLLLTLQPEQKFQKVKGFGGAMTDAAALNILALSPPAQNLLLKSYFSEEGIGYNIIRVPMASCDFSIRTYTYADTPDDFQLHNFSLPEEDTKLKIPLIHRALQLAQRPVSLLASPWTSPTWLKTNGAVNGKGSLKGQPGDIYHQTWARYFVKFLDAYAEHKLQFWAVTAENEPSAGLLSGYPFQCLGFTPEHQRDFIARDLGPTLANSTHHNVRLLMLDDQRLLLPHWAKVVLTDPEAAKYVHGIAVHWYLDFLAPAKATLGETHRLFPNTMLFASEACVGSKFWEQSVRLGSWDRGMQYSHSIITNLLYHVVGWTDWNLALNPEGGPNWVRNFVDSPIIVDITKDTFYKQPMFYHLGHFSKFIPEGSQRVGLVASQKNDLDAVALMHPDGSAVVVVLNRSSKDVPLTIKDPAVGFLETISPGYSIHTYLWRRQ
UniProt P04062, 40-536 R534H limits assumed: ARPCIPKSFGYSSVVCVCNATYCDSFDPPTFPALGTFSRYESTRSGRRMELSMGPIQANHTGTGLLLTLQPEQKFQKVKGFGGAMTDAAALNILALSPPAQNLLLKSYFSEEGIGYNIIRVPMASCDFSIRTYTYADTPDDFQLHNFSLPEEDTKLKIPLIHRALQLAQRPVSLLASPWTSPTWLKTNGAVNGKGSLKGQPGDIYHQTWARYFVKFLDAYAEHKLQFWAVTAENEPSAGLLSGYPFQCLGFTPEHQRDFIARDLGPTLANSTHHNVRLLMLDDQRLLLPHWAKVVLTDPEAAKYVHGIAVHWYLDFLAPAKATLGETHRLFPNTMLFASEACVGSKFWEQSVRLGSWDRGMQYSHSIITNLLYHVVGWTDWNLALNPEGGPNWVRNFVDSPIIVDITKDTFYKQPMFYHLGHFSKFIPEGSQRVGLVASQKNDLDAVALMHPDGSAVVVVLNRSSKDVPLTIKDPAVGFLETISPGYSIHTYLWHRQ

How the values were obtained:
[1] = system: endogenous GBA1 and overexpressed human GBA2 and GBA3; experiment: ABP labeling (ABPP) in lysates of GBA2/GBA3 overexpressing HEK293T cells, selectivity pattern; type: binding; details: pH 6.0, 30 min, tested form: bicarbonate
Experimental: (§1) As a negative control, lysates of HEK293T cells with knocked‐out (KO) expression of GBA1 and GBA2 were incubated with a high concentration of each ABP. The observed selectivity patterns of most compounds were in line with the results of the fluorogenic substrate assay except for 50, which labeled GBA1 less potently than expected. […] However, 41 labels GBA3 only at high concentrations and is selective for GBA1 and GBA2 at lower concentrations. In contrast, the dideoxy derivatives all discriminate between the target enzymes, labeling mainly one out of three (53: GBA1, 50: GBA3, and 5: GBA2 and, to a lesser extent, GBA3), alongside significant off‐target labeling at higher concentrations. For instance, besides labeling GBA2 and GBA3 (104.6 kDa and 53.6 kDa respectively), ABP 5 labels three major off‐target proteins (~45 kDa, ~55 kDa, and ~65 kDa), and these bands appear also in the experiments with the other deoxygenated ABPs (Figure 3B). Possibly, the deoxygenated ABPs are more hydrophobic compared to ABPs 1 and 3, causing them to more readily associate with hydrophobic protein patches and subsequently engage in reactions.
(§2) described previously.6,16
(§3) protease inhibitor cocktail (EDTA-free, Roche)).
(§4) The enzymes were incubated with 12.5
(§5) The substrate mixtures diluted in […]

GBA3 = GBA3 (Homo sapiens, UniProt Q9H227); experiment: ABP labeling (ABPP) of GBA3 in lysates of GBA2/GBA3 overexpressing HEK293T cells; type: binding; details: pH 6.0, tested form: bicarbonate
Experimental: as §1
The optimal conditions for selective GBA3 labeling with 50 were investigated next. […]

recombinant human GBA1 = recombinant human GBA1 (Homo sapiens, UniProt P04062, R534H); experiment: ABP labeling (ABPP) on recombinant human GBA1; details: tested form: bicarbonate
Experimental: Next, ABPP with 50 was performed on recombinant human GBA1. In contrast to the cell lysate ABPP, 50 labeled GBA1 in these conditions at various pH values (Supporting Information, Figure S2). It was hypothesized that binding of 50 to rhGBA1 is non‐specific, and to investigate this possibility, an ABP labeling on rhGBA1 supplemented with an excess of bovine serum albumin (BSA, 0.1 % w/v) was carried out. Despite the intensive labeling of BSA, effective labeling of rhGBA1 by 50 was retained (Figure 4D). […] Intriguingly, ABP 48 (the structurally closed analogue of 50) labeled GBA1 in HEK293T cell lysates, in line with the results of the fluorogenic substrate assay (Supporting Information, Figure S2).
as §2, §3, §4, §5

GBA1 = GBA1 (Homo sapiens, UniProt P04062); experiment: competitive ABPP (cABPP) with 2 in HEK293T cell lysates, GBA1; details: tested form: bicarbonate
Excerpt: Some selected compounds were next assessed by competitive ABPP (cABPP) with Bodipy‐tagged compound 2, that allows read‐out and quantification independent of Cy5 excitation and emission ranges. The cABPP experiments confirmed the apparent selectivity of 5 for GBA2/3 over GBA1, while compound 53 was confirmed to target GBA1 selectively over GBA2 and GBA3 (Supporting information, Figure S1). Special attention was given to compound 50 to investigate the discrepancy in results on GBA1 from the fluorogenic substrate assays and ABPP assays. Competitive ABPP with 2 confirmed that GBA1 was not inhibited after incubation of cell lysates of GBA2/GBA3 overexpressing HEK293T cells with 50 for 30 min, nor for 3 h (Figure 4A and B). It was hypothesized that GBA1 was not inhibited due to the competition with unnaturally high levels of GBA2 and GBA3, however after incubation of 50 with wild‐type HEK293T cell lysates, GBA1 activity remained unchanged independent of compound concentration (Figure 4C).
Figure 4 ABP labeling with 50 followed by cABPP with 2 (300 nM) in lysates of HEK293T GBA2/GBA3 overexpressing cells (incubation time (A) 30 min; (B) 3 h); (C) HEK293T WT cells (incubation time 30 min). (D) ABP labeling with 50 in rhGBA1 at pH 6.0 supplemented with 0.1 % (w/v) BSA. (E) cABPP. The sample for lane 2 was pre‐incubated with 2 (300 nM) followed by 50 (10 μM). […]

GBA1, GBA2 and GBA3 = details: GBA2/GBA3 overexpressing HEK293T cell lysates; tested form: bicarbonate

| Compound | target glucosidases labeled by the ABP [1] | labeling of GBA3 (GBA3) | labeling of rhGBA1 in presence of BSA (recombinant human GBA1; rhGBA1, pH 6.0, supplemented with BSA 0.1 % w/v) | labeling of rhGBA1 (recombinant human GBA1; rhGBA1, various pH values) | GBA1 inhibition in cABPP with 2 (300 nM) (GBA1; lysates of GBA2/GBA3 overexpressing HEK293T cells, incubation 30 min or 3 h) | GBA1 activity in cABPP with 2 (300 nM) (GBA1; wild-type HEK293T cell lysates, incubation 30 min) | selectivity in cABPP with 2 (300 nM) (GBA1, GBA2 and GBA3) |
| --- | --- | --- | --- | --- | --- | --- | --- |
| CN1/C(=C/C=C/C=C/C2=[N+](CCCCCC(=O)NCCCCCCCCN3[C@@H]4[C@H](CO)[C@@H](O)C[C@@H](O)[C@@H]43)c3ccccc3C2(C)C)C(C)(C)c2ccccc21 (stereo partly shown) | label all three target glucosidases | labels GBA3 only at high concentrations | – | – | – | – | – |
| CN1/C(=C/C=C/C=C/C2=[N+](CCCCCC(=O)NCCCCCCCCN3[C@@H]4[C@H](CO)[C@H](O)C[C@@H](O)[C@@H]43)c3ccccc3C2(C)C)C(C)(C)c2ccccc21 (stereo partly shown) | label all three target glucosidases | – | – | – | – | – | – |
| C[C@H]1[C@@H]2[C@H]([C@H](O)C[C@H]1O)N2CCCCCCCCNC(=O)CCCCC[N+]1=C(/C=C/C=C/C=C2/N(C)c3ccccc3C2(C)C)C(C)(C)c2ccccc21 (stereo partly shown) | GBA3 | – | effective labeling of rhGBA1 by 50 was retained | labeled GBA1 | not inhibited | remained unchanged | – |
| C[C@H]1[C@@H]2[C@H]([C@H](O)C[C@@H]1O)N2CCCCCCCCNC(=O)CCCCC[N+]1=C(/C=C/C=C/C=C2/N(C)c3ccccc3C2(C)C)C(C)(C)c2ccccc21 (stereo partly shown) | GBA1 | – | – | – | – | – | target GBA1 selectively over GBA2 and GBA3 |
